The text below walks through data of publication PMC5846678 (Bioorganic & medicinal chemistry letters, 2017).

The structures appear in SMILES notation.

The term logP denotes a log measure of how a compound divides between an organic and an aqueous phase.

In one series the test system is IGF1R/IR. Briefly: biodistribution in rats 120 min post injection. Type of series: in vivo, Sprague-Dawley rats.
The conditions of series [1]: cited from earlier work.

Turning to `C[C@@]1(C(=O)Nc2ccc([18F])nc2)CCCN1c1nc(Nc2cc(C3CC3)[nH]n2)c2cccn2n1` [[^18F]BMS-754807], in the series on IGF1R/IR, the clearance from blood result is on record as “largely cleared”. Moreover, the logP in series [1] was 2.8.
